Measurements taken from ChEMBL document CHEMBL5352471, “Design, synthesis, and pharmacological evaluations of pyrrolo[1,2-a]quinoxaline-based derivatives as potent and selective sirt6 activators” (Eur J Med Chem, 2023).
Activity calls are given as the source filed them. The calls are words filed in the database; no cut-off is given here.

The chains behind the UniProt entries cited, without tags or fusion partners. Where a name states a change or a piece, a line headed by the entry shows the natural chain unless it says otherwise.
UniProt Q9NXA8: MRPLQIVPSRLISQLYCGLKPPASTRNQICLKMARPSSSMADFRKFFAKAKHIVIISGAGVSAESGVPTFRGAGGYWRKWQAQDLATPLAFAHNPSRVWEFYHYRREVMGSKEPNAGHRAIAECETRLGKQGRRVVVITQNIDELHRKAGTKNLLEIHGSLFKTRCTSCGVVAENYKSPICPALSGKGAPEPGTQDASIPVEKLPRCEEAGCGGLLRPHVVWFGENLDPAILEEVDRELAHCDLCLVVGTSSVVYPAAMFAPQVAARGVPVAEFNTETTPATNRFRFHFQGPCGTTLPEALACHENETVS

Experiments:
[1] = molecular target: T1, NAD-dependent protein deacetylase sirtuin-1 (Homo sapiens) (UniProt Q96EB6); assay: Activation of human SIRT1 (unknown origin) deacetylation activity using fluorogenic substrate measured upto 120 mins by microplate reader analysis
T1 sequence (whole entry): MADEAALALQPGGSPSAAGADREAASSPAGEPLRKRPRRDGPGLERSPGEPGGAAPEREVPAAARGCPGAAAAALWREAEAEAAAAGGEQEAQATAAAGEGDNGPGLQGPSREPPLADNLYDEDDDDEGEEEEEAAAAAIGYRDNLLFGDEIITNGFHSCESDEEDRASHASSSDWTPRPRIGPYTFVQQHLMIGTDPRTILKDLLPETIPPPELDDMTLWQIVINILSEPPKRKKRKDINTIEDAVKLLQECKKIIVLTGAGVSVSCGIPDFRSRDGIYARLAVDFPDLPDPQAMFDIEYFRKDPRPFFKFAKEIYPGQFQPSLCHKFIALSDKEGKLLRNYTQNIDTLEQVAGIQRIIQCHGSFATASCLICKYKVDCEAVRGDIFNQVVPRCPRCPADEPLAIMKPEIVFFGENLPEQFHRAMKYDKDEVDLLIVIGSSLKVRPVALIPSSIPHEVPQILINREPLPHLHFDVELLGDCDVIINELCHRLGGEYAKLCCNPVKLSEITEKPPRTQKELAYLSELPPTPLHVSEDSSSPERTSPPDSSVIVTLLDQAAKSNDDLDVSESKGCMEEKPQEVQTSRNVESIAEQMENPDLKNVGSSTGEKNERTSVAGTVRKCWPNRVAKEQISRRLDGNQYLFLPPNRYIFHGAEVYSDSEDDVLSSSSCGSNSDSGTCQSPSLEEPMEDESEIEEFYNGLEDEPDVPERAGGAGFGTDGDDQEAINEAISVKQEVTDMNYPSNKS
How it was run: (§1)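 Recombinant Sirt1 or Sirt2 was assayed with a kit fluoro-substrate peptide (0.1 mM stock), NAD+ (8 mM stock) and developer in a 25 µL reaction at room temperature. Fluorescence was read over 125 min, at Ex/Em 350/450 nm for Sirt1 and 490/530 nm for Sirt2.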

[2] = molecular target: T2, NAD-dependent protein deacetylase sirtuin-2 (Homo sapiens) (UniProt Q8IXJ6); assay: Activation of human SIRT2 (unknown origin) deacetylation activity using fluorogenic substrate measured upto 120 mins by microplate reader analysis; how it was run: as §1
T2 sequence (whole entry): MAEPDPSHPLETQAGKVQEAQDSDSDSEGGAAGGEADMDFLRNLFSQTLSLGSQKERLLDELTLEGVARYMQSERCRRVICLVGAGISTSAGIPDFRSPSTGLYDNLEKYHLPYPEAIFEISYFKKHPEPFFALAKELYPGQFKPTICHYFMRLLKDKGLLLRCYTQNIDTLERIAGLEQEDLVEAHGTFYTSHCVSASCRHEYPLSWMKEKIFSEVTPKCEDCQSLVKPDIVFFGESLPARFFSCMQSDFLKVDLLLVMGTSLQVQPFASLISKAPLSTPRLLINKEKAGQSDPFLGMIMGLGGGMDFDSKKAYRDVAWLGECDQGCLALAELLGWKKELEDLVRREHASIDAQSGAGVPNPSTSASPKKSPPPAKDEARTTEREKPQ

[3] = molecular target: NAD-dependent protein deacylase sirtuin-5, mitochondrial (Homo sapiens) (UniProt Q9NXA8); assay: Activation of human SIRT5 (unknown origin) desuccinylation activity using fluorogenic substrate measured upto 120 mins by microplate reader analysis

SMILES	Activity [1]	Activity ([1]; filed as activator)	Activity [2]	Activity [3]
c1ccc2c(c1)NC(c1cccnc1N1CCN(CCn3ccnc3)CC1)c1cccn1-2 (stereo not given)	inactive	Active	inactive	inactive
COCCN1CCN(c2ncccc2C2Nc3ccccc3-n3cccc32)CC1 (stereo not given)	inactive	Active	inactive	inactive
OCCN1CCN(c2ncccc2C2Nc3ccccc3-n3cccc32)CC1 (stereo not given)	inactive	Active	inactive	inactive

Other lines, results leading:

Activity [1]	Activity ([1]; filed as activator)	Activity [2]	Activity [3]	SMILES
inactive	Active	inactive	inactive	OC1CN(CCN2CCN(c3ncccc3C3Nc4ccccc4-n4cccc43)CC2)C1 (stereo not given)
inactive	Active	inactive	inactive	c1ccc2c(c1)NC(c1cccnc1N1CCN(CCN3CCCC3)CC1)c1cccn1-2 (stereo not given)
